# Literature values as cited in article PMC11243196, “Identification of Benzothiazoles Bearing 1,3,4-Thiadiazole as Antiproliferative Hybrids Targeting VEGFR-2 and BRAF Kinase: Design, Synthesis, BIO Evaluation and In Silico Study” (Molecules, 2024).
# Test system: VEGFR-2 in MCF-7 cells
# Set-up: method as in PMID 32045054
# Details: cited from earlier work
compound,measurement,value
"CNC(=O)c1cc(Oc2ccc(NC(=O)Nc3ccc(Cl)c(C(F)(F)F)c3)cc2)ccn1 [SOR, Sorafenib]",inhibitory effect on VEGFR-2 in MCF-7 cells,88%
